SMILES strings stand for the structures.

In the experiment the test system is ovary-removed rats. The settings on record: relative to OVX control = 1.00; 1.0 mg/kg (T1). Here is the method: In order to investigate the effects of the inventive mutual salts on BMD, bone stiffness, serum cholesterol level and calcium density, in vivo tests were carried out as follows.
Also, 1.5% carboxymethylcellulose alone was administrated in a same manner to each of ovary-removed rats (group OVX) and normal rats (control, group Sham). After 8 weeks, a femur sample was obtained from each test groups to measure BMD, maximum load, stiffness, trabecular volume of epiphysis, bone volume of metaphysis, blood cholesterol level and blood calcium density.

Take `NCCCC(O)(P(=O)(O)O)P(=O)(O)O` [Alendronate, sodium alendronate trihydrate]: the “Bone volume Relativ Vol” value was 1.96.

These data come from patent US20070082871A1, “Antiresorptive mutual salt of raloxifene and bisphosphonic acid” (HANMI PHARM. CO., LTD., priority 2003, published 2007).
